Assay results taken from patent publication US20220380768A1 (TALLAC THERAPEUTICS, published 2022).
Numbering of substitutions follows the chain as printed.

B1: TNT76 (antibody, human IgG1, kappa, V domains shown)
VH: QVQLQESGPGLVKPSDTLSLTCTVSGFAFSIYDMSWIRQPPGKGLEWIAYISSGGGTTYYNPSLKSRVTISVDTSKNQFSLKLSSVTAADTAVYYCARHSGYGTHWGVLFAYWGRGTLVTVSS
VL: DIQMTQSPSSVSASVGDRVTITCRASQDIHGYLAWYQQKPGKAPKLLIYYTSSLQSGVPSRFSGSGSGTDFTLTISSLQPEDFATYYCQQGNTLPWTFGQGTKLEIKR
B2: TNT80 (antibody, human IgG1, kappa, V domains shown)
VH: B1 VH
VL: B1 VL with V11L, D28S, H30S, G31S, A34N, Y50A, T51A
B3: TNT87 (antibody, human IgG1, kappa, V domains shown)
VH: EVQLVESGGGLVQPGGSLRLSCAASGFTFSSYEMNWVRQAPGKGLEWVSYISSSGSTIYYADSVKGRFTISRDNAKNSLYLQMNSLRAEDTAVYYCARHSGYGTHWGVLFAYWGRGTLVTVSS
VL: DIVMTQTPLSLSVTPGQPASISCRASQDIHGYLNWYQQKPGQSPQLLIYYTSILHSGVPDRFSGSGSGTDFTLKISRVEAEDVGVYFCQQGNTLPWTFGGGTKLEIKR
B4: TNT74 (antibody, human IgG1, kappa, V domains shown)
VH: B3 VH with E1Q, V5L, L11V, T28A, S31I, E33D, Y50A, S54G, S56G, I58T
VL: B1 VL
B5: TNT70 (antibody, human IgG1, kappa, V domains shown)
VH: B3 VH with E1Q, V5L, L11V, T28A, S31I, E33D, Y50A, S54G, S56G, I58T
VL: B1 VL with V11L, A34N, S53I, Q55H, Y87F

What follows are binders tested against T1, human CD22 (d1 to d7 domain according to NP_001762.2) (human, UniProt P20273 20-687) (assay: SPR; summary table, column 'CD22 KD (nM)').
T1 construct: domain: d1 to d7 domain; also called human CD22-gly; Siglec-2
In the case of B1, the Kd is reported as 30 nM. Work on B2 yielded a Kd of 23 nM.

The binders below were run against T1, human CD22 (d1 to d7 domain according …) (assay: SPR; mAb supernatant captured on protein A chip, human CD22 injected).
Description: Binding of humanized anti-CD22 antibodies to human CD22 was measured by surface plasmon resonance (SPR). For assessment of binding by SPR, biotinylated protein A (15 μg/mL) was immobilized to the surface of an NLC chip. 30 μL of mAb supernatant was added to 150 μL of PBS-T and captured over the protein A surface. Serial dilutions of human CD22-gly (300 nM, 3× dilution) were injected over the mAb-coated chips, and binding kinetics were determined. Chips were regenerated using 4:1 v/v of Pierce IgG elution butter/4M NaCl.
In the case of B3, the Kd is reported as 6.85 nM, the koff is reported as 0.00171 s⁻¹ and the kon is reported as 250000 M⁻¹ s⁻¹. In the case of B1, the Kd is reported as 30.2 nM, the koff is reported as 0.00601 s⁻¹ and the kon is reported as 199000 M⁻¹ s⁻¹. B2 gave a Kd of 23.3 nM, a koff of 0.00519 s⁻¹ and a kon of 223000 M⁻¹ s⁻¹. B4 was tested, and the koff was 0.00289 s⁻¹ and the kon was 186000 M⁻¹ s⁻¹.

The binders below were run against T2, cynomolgus monkey CD22 on B cells of cynomolgus PBMCs (cynomolgus monkey) (assay: flow cytometry; Alexa Fluor 647-labelled antibody on CD20+ B cells of cynomolgus PBMCs).
T2 construct: whole, on cells; also called cynomolgus CD22; Cyno CD22
Description: Binding of humanized anti-CD22 antibodies to human or cynomolgus PBMCs was measured by flow cytometry. Trima residuals were received from Vitalant and cynomolgus monkey whole blood were received from BioIVT. Both were diluted 1:4 with Phosphate Buffered Saline (PBS, Gibco). Diluted blood was split into two tubes and underplayed with 15 mL Ficoll-Paque (GE Healthcare). Tubes were centrifuged for 30 minutes at 400×g. PBMCs were collected from the interface, washed and resuspended in FACS buffer (PBS with 0.5% Bovine Serum Albumin (Gibco)). 100K PBMCs from human and cynomolgus monkey were plated in 96-well plates and pelleted by centrifugation for five minutes at 400×g and stained at 4° C. in 100 μl Fixable Viability Dye eFluor 780 (Thermo Fisher) diluted 1:4000 in PBS. Cells were centrifuged and stained at 4° C. in 100 μl FACS buffer for 30 minutes containing FcR Blocking Reagent (Miltenyi Biotec), anti-CD20 and Alexa Fluor 647 conjugated CD22 binding antibodies, which were labeled using Molecular Probes Alexa Fluor 647 Protein Labeling kit (Molecular Probes) according to manufacturer's protocol. […] Cells were analyzed on Attune NxT Flow Cytometer (Thermo Fisher), with subsequent data analysis by Flowjo 10.7 (Treestar). […] CD20+ cells were gated to identify B cells and median fluorescent intensity for CD22 was determined.
In the case of B4, the “CD22 Median Fluorescent Intensity on CD20+ cells” value is reported as 185.

Each binder was assayed against T2, cynomolgus monkey CD22 on B cells of … (assay: flow cytometry; Alexa Fluor 647-labelled antibody, cynomolgus PBMCs).
Description: (§1) Binding of humanized anti-CD22 antibodies to human or cynomolgus PBMCs was measured by flow cytometry. Trima residuals were received from Vitalant and cynomolgus monkey whole blood were received from BioIVT. Both were diluted 1:4 with Phosphate Buffered Saline (PBS, Gibco). Diluted blood was split into two tubes and underplayed with 15 mL Ficoll-Paque (GE Healthcare). Tubes were centrifuged for 30 minutes at 400×g. PBMCs were collected from the interface, washed and resuspended in FACS buffer (PBS with 0.5% Bovine Serum Albumin (Gibco)). 100K PBMCs from human and cynomolgus monkey were plated in 96-well plates and pelleted by centrifugation for five minutes at 400×g and stained at 4° C. in 100 μl Fixable Viability Dye eFluor 780 (Thermo Fisher) diluted 1:4000 in PBS. Cells were centrifuged and stained at 4° C. in 100 μl FACS buffer for 30 minutes containing FcR Blocking Reagent (Miltenyi Biotec), anti-CD20 and Alexa Fluor 647 conjugated CD22 binding antibodies, which were labeled using Molecular Probes Alexa Fluor 647 Protein Labeling kit (Molecular Probes) according to manufacturer's protocol. Cells were centrifuged and washed twice in 200 μl FACS buffer and fixed in 100 μl 0.5% paraformaldehyde. Cells were analyzed on Attune NxT Flow Cytometer (Thermo Fisher), with subsequent data analysis by Flowjo 10.7 (Treestar). Dead cells were excluded by gating on the eFluor 780-negative population. CD20+ cells were gated to identify B cells and median fluorescent intensity for CD22 was determined.
(§2) The fold increase in binding was determined by calculating the ratio of CD22 median fluorescent intensity on CD20⁺ over CD20⁻ cells.
For B3, the “CD22: CD20+/CD20- (ratio of median fluorescent intensity)” value was 16 fold. In the case of B1, the “CD22: CD20+/CD20- (ratio of median fluorescent intensity)” value is reported as 1.6 fold. For B5, the “CD22: CD20+/CD20- (ratio of median fluorescent intensity)” value was 11.2 fold. B2 was tested, and the “CD22: CD20+/CD20- (ratio of median fluorescent intensity)” value was 1.8 fold.

The binders below were run against T3, human CD22 on B cells of human PBMCs (human, UniProt P20273 20-847) (assay: flow cytometry; Alexa Fluor 647-labelled antibody, human PBMCs).
T3 construct: whole, on cells; also called CD22 on human B cells
Description: as §1, §2
For B3, the “CD22: CD20+/CD20- (ratio of median fluorescent intensity)” value was 23.7 fold. With B1 the “CD22: CD20+/CD20- (ratio of median fluorescent intensity)” value was 20.4 fold. With B5 the “CD22: CD20+/CD20- (ratio of median fluorescent intensity)” value was 23.6 fold. B2 was tested, and the “CD22: CD20+/CD20- (ratio of median fluorescent intensity)” value was 20.3 fold.
